Measurements: ChEMBL document CHEMBL1137403, “Discovery of 2-[4-{{2-(2S,5R)-2-cyano-5-ethynyl-1-pyrrolidinyl]-2-oxoethyl]amino]- 4-methyl-1-piperidinyl]-4-pyridinecarboxylic acid (ABT-279): a very potent, selective, effective, and well-tolerated inhibitor of dipeptidyl peptidase-IV, useful for the treatment of diabetes” (J Med Chem, 2006)

By UniProt entry, the sequences of proteins in these tests, tags left out.
UniProt P27487, whole entry: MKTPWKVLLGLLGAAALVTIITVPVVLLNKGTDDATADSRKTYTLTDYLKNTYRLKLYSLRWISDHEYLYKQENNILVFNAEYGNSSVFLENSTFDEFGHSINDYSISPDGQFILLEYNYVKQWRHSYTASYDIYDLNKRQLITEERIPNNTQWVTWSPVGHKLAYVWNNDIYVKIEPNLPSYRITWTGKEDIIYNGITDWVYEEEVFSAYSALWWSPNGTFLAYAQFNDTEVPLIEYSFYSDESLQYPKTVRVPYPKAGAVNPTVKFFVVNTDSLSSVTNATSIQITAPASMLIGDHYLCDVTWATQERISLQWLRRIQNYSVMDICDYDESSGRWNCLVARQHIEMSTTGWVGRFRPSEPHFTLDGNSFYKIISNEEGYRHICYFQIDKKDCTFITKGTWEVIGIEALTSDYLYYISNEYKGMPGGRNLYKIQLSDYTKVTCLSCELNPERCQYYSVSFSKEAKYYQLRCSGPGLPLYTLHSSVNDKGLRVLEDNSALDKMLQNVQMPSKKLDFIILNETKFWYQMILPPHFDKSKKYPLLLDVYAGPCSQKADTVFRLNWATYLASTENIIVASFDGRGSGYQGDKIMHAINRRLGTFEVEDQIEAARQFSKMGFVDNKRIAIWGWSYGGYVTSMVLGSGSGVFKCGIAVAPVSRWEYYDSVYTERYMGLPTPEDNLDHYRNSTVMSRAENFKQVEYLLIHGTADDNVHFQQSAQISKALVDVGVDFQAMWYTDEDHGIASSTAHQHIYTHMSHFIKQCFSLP

Target: Dipeptidyl peptidase 4 (Homo sapiens, UniProt P27487)

Ki: > 30 µM
Compound: CCC(C)[C@H](N)C(=O)N1[C@H](C#N)CC[C@H]1c1ccccc1 (stereo partly specified)
